Molecular target: T1, Pkd1-WT (Homo sapiens, UniProt Q15139)
T1 sequence (Q15139 1-912): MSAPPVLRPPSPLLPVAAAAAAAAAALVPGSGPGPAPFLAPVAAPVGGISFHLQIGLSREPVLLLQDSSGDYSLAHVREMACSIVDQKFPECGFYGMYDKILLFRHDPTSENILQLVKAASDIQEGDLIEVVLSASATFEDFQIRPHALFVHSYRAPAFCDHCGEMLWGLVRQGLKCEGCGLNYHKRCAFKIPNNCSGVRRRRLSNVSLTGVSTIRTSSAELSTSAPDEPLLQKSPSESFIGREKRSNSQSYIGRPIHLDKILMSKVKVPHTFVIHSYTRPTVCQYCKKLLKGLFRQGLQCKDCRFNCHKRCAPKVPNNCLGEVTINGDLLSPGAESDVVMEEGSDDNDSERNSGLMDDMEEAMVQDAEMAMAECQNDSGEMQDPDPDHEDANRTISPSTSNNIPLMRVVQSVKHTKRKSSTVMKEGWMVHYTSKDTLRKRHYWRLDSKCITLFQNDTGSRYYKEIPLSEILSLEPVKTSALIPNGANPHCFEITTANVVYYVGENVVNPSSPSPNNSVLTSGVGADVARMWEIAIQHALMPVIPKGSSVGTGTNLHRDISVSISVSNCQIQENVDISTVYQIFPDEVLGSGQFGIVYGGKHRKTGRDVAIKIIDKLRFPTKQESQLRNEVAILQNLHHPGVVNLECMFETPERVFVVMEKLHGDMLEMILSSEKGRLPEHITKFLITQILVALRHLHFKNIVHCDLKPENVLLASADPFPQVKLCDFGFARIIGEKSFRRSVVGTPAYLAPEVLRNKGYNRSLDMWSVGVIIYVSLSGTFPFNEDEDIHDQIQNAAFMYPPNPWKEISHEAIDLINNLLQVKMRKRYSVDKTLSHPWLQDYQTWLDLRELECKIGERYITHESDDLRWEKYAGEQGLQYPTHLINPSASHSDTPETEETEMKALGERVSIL
Type: biochemical
Conditions: read-out: IC50 for Pkd1-WT in vitro

**Q.** How did the IC50 turn out when CC(C)(C)n1nc(-c2cccc3ccccc23)c2c(N)ncnc21 [1NA-PP1] was run?
**A.** 150 nM

— paper PMC3938192 (ACS chemical biology, 2013)
